Chains of the proteins cited; added tags and fusions are not shown. Residues count along the entry.
UniProt P47871, 26-477: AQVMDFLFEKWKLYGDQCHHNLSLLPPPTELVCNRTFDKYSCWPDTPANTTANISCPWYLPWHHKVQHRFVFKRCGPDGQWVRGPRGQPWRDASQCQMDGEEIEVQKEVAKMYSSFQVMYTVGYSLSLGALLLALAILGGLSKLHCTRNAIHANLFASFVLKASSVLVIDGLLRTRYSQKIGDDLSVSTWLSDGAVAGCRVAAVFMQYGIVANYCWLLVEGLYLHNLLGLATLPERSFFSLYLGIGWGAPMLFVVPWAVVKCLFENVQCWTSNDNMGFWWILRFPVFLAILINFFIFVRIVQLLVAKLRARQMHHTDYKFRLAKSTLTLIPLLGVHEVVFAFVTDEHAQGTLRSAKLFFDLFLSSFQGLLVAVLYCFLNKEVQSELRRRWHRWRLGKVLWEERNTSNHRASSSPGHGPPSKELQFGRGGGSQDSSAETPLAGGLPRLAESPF
UniProt P43220, 24-463: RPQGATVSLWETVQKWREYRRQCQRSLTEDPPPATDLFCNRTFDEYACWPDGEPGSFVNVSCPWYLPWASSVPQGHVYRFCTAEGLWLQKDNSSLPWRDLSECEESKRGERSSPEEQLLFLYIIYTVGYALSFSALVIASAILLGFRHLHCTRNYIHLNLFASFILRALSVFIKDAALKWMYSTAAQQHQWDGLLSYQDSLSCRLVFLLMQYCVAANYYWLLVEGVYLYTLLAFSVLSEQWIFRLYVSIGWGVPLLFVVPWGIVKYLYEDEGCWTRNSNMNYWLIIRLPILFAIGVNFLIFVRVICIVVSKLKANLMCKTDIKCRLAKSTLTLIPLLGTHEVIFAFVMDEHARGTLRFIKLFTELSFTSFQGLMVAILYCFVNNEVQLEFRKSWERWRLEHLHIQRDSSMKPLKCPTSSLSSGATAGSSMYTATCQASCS

According to patent publication US12723063B2, “GIPR-agonist compounds” (Eli Lilly and Company, priority 2019, dated 2026):

Experiments:
human GcgR = target: T1, human GcgR (Homo sapiens, UniProt P47871); assay: [125I]-Glucagon binding, SPA with WGA beads, 0.1% bacitracin; conditions: read-out: hGcgR Ki, geometric mean
T1 construct: expressed in transfected cells; crude membranes
Procedure: (§1) Stably transfected cell lines are prepared by subcloning receptor cDNA into a pcDNA3 expression plasmid and transfected into human embryonic kidney (HEK) 293 (hGcgR and hGLP-1R) or Chinese Hamster Ovary (CHO) (hGIPR) cells followed by selection with Geneticin (hGLP-1R and hGIPR) or hygromycin B (hGcgR).
(§2) Two methods are used for the preparation of crude cell membranes.
(§3) Method 1: Frozen cell pellets are lysed on ice in hypotonic buffer containing 50 mM Tris HCl, pH 7.5, and Roche Complete™ Protease Inhibitors with EDTA. The cell suspension is disrupted using a glass Potter-Elvehjem homogenizer fitted with a Teflon® pestle for 25 strokes. The homogenate is centrifuged at 4° C. at 1100× g for 10 minutes. […]
(§4) The equilibrium binding dissociation constants (Kd) for the various receptor/radioligand interactions are determined from homologous competition binding analysis instead of saturation binding due to high propanol content in the [^125I] stock material.
The human Geg receptor binding assays are performed using a Scintillation Proximity Assay (SPA) format with wheat germ agglutinin (WGA) beads (Perkin Elmer). […] Plates are sealed and mixed on a plate shaker (setting 6) for 1 minute and read with a PerkinElmer Trilux MicroBeta® scintillation counter after 12 hours of incubation/settling time at room temperature. […]

human GLP-1R = target: T2, human GLP-1R (Homo sapiens, UniProt P43220); assay: [125I]-GLP-1 binding, SPA with WGA beads, 0.1% bacitracin; conditions: read-out: hGLP1R Ki, geometric mean
T2 construct: expressed in transfected cells; crude membranes
Procedure: as §1, §2
Method 1: Frozen cell pellets are lysed on ice in hypotonic buffer containing 50 mM Tris HCl, pH 7.5, and Roche Complete™ Protease Inhibitors with EDTA. The cell suspension is disrupted using a glass Potter-Elvehjem homogenizer fitted with a Teflon® pestle for 25 strokes. […]
The equilibrium binding dissociation constants (Kd) for the various receptor/radioligand interactions are determined from homologous competition binding analysis instead of saturation binding due to high propanol content in the [^125I] stock material. […]
Data are analyzed using four-parameter (curve maximum, curve minimum, IC50, Hill slope) nonlinear regression routines (Genedata Screener, version 12.0.4, Genedata AG, Basal, Switzerland). […] Values for Ki are reported as the geometric mean, with error expressed as the standard error of the mean (SEM) and n is equal to the number of independent replicates (determined in assays performed on different days). […] SEM is only calculated when y=2 or greater. […]

human GIPR = target: T3, human GIPR (Homo sapiens, UniProt P48546); assay: [125I]-GIP binding, SPA with WGA beads, 0.1% bacitracin; conditions: read-out: hGIPR Ki, geometric mean
T3 construct: expressed in transfected cells; crude membranes
T3 sequence (P48546 22-466): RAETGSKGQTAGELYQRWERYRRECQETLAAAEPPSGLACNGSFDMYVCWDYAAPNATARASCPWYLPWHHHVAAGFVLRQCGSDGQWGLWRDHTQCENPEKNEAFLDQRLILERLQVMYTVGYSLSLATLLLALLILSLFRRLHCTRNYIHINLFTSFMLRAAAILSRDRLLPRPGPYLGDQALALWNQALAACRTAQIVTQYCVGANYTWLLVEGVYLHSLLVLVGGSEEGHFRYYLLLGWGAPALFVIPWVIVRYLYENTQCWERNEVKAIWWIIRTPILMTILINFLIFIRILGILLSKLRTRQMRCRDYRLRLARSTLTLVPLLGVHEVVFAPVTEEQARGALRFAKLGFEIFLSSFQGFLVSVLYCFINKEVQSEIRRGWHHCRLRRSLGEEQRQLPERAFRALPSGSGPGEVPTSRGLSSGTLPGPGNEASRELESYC
Procedure: as §1, §2, §3, §4
The binding buffer contains 25 mM HEPES, pH 7.4, 2.5 mM CaCl2), 1 mM MgCl2, 0.1% (w/v) bacitracin, 0.003% (w/v) TWEEN®-20, and Roche Complete™ Protease Inhibitors without EDTA. […] Plates are sealed and mixed on a plate shaker (setting 6) for 1 minute and read with a PerkinElmer Trilux MicroBeta® scintillation counter after 2.5 to 12 hours of incubation/settling time at room temperature. […]

## GIP(1-42)-NH2 [hGIP-NH2, reference compound]
Human GcgR
  pKi: 5.94
Human GLP-1R
  pKi: 5.96

## Glucagon [hGlucagon, reference compound]
Human GLP-1R
  pKi: < 5.31
Human GIPR
  pKi: < 5.62

pKi: −log10 of the molar value.
